BindingDB's records for 2172538

Chains of the proteins cited; added tags and fusions are not shown.
UniProt Q99720, whole entry, looked up: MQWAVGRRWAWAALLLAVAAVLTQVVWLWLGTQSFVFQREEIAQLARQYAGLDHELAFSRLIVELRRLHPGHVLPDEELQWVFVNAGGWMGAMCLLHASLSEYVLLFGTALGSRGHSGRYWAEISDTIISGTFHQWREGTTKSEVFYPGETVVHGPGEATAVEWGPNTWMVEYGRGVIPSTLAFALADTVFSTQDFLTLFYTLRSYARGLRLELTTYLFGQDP

Each compound was assayed against T1, Sigma non-opioid intracellular receptor 1 (Homo sapiens, UniProt Q99720) (assay: Binding affinity for sigma opioid receptor using [3H](+)-3-PPP as radioligand).

First: CN(C(=O)Cc1cc(Cl)c(Cl)cc1[N+](=O)[O-])C1CCCC[C@@H]1N1CCCC1 (some centres not stated)
Second: CN(C(=O)Cc1cc(Cl)c(Cl)cc1N)C1CCCC[C@@H]1N1CCCC1 (some centres not stated)
The IC50 of the first is 500-fold higher: 5.95 µM for the first, 0.012 µM for the second.

`CN(C(=O)Cc1cccs1)C1CCCC[C@H]1N1CCCC1` (some centres not stated) and `CN(C(=O)Cc1ccsc1)C1CCCC[C@H]1N1CCCC1` (some centres not stated) are within 1.5-fold of each other in IC50: 1.52 µM for the first, 2.1 µM for the second.

`CN([C@H]1CCCC[C@H]1N1CCCC1)S(=O)(=O)c1ccccc1` and `CN(C(=O)Cc1ccccc1)C1CCCC[C@@H]1N1CCCC1` (some centres not stated) are within 1.5-fold of each other in IC50: 0.966 µM for the first, 1.16 µM for the second.

Going from `CN(C(=O)Cc1ccccc1Cl)C1CCCC[C@@H]1N1CCCC1` (some centres not stated) to `CN(C(=O)Cc1ccc(Cl)cc1Cl)[C@@H]1CCCC[C@@H]1N1CCCC1`, the IC50 falls from 0.87 µM to 0.278 µM (3.1-fold). The second is the more potent here.

First: CN(CCc1ccccc1)C1CCCC[C@H]1N1CCCC1 (some centres not stated)
Second: CN(CCc1ccc2ccccc2c1)C1CCCC[C@H]1N1CCCC1 (some centres not stated)
The IC50 of the first is 3.4-fold higher: 0.125 µM for the first, 0.037 µM for the second.

`CN(C(=O)Cc1cccc([N+](=O)[O-])c1)C1CCCC[C@@H]1N1CCCC1` (some centres not stated) and `CN(C(=O)Cc1ccc([N+](=O)[O-])cc1)C1CCCC[C@@H]1N1CCCC1` (some centres not stated) are within 1.5-fold of each other in IC50: 1.61 µM for the first, 2.37 µM for the second.

First: CN(C(=O)Nc1ccc(Cl)c(Cl)c1)C1CCCC[C@@H]1N1CCCC1 (some centres not stated)
Second: CN(C(=S)Nc1ccc(Cl)c(Cl)c1)C1CCCC[C@@H]1N1CCCC1 (some centres not stated)
The IC50 of the first is 1.6-fold higher: 5.3 µM for the first, 3.27 µM for the second. The second is the more potent here.

First: CN(C(=O)Cc1cccc2ccccc12)C1CCCC[C@H]1N1CCCC1 (some centres not stated)
Second: CN(C(=O)Cc1ccc(Br)cc1)C1CCCC[C@@H]1N1CCCC1 (some centres not stated)
The IC50 of the first is 3-fold lower: 0.077 µM for the first, 0.228 µM for the second.

Compared with `CN(C(=O)Cc1c(Cl)cccc1Cl)C1CCCC[C@@H]1N1CCCC1` (some centres not stated), `CN(C(=O)Cc1ccc(Cl)cc1)C1CCCC[C@@H]1N1CCCC1` (some centres not stated) is 6.2-fold lower in IC50: 1.39 µM for the first, 0.224 µM for the second. The second is the more potent here.

In the case of `CN(C(=O)OCc1ccccc1)C1CCCC[C@@H]1N1CCCC1` (some centres not stated), the IC50 is reported as 0.928 µM.

Each compound was assayed against T1, Sigma non-opioid intracellular receptor 1 (assay: Affinity of compound to Sigma opioid receptor labelled with [3H](+)-3-PPP).

Compared with `CN(CCc1ccc2c(c1)OCO2)C1CCCC[C@H]1N1CCCC1` (some centres not stated), `CN(C(=O)Cc1ccc2c(c1)OCO2)C1CCCC[C@H]1N1CCCC1` (some centres not stated) is 80-fold higher in Ki: 0.09 µM for the first, 7.21 µM for the second. The first binds more tightly here.

Compound `CN(C(=O)Cc1ccc2ccccc2c1)C1CCCC[C@@H]1N1CCCC1` (some centres not stated) has a Ki of 1.37 µM.
